# Test results from ChEMBL document CHEMBL6074668 (J Med Chem, 2024).
# The chains behind the UniProt entries cited, without tags or fusion partners. Where a name states a change or a piece, a line headed by the entry shows the natural chain unless it says otherwise.
# UniProt P41143, whole entry: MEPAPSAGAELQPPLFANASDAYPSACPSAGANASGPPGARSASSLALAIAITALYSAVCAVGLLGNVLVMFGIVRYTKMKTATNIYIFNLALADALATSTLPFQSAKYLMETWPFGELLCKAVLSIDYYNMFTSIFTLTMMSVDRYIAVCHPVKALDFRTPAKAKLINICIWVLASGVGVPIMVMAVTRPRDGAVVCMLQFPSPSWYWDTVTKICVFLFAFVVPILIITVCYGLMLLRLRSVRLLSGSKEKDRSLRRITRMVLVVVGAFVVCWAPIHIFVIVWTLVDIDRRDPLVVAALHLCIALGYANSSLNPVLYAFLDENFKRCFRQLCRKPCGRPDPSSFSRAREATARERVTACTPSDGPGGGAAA
# UniProt P35372, whole entry: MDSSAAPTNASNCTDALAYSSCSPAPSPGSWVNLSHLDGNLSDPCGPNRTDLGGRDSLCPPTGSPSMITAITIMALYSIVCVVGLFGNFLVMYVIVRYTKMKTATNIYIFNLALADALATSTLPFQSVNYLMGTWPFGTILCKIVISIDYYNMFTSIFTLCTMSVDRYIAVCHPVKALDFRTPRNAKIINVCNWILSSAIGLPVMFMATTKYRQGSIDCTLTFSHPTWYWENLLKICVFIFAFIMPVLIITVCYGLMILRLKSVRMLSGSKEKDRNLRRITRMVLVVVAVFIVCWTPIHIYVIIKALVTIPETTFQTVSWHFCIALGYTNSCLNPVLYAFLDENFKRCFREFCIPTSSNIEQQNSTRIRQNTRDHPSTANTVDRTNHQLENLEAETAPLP
# UniProt P41145: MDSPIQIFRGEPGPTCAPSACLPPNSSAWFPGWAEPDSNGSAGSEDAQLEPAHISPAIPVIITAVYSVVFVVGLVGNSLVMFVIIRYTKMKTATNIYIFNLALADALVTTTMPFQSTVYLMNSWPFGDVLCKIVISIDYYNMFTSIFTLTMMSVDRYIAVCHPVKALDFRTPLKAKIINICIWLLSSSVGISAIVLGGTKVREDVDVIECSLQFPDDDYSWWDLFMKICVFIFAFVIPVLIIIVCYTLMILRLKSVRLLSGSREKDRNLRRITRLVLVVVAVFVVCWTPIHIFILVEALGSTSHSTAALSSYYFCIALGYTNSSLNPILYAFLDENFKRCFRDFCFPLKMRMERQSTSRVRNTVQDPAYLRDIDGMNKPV
# The source made the active and inactive calls. The rule behind the calls is not given here.
# Columns and labels:
# Homo sapiens = organism: Homo sapiens; test: Selectivity index, ratio of EC50 for agonist activity at human mu opioid receptor expressed in CHO-K1 cells to EC50 for agonist activity at human kappa opioid receptor expressed in CHO-K1 cells; assay type: cell-based
# [1] = molecular target: Delta-type opioid receptor (Homo sapiens) (UniProt P41143); test: Agonist activity at human delta opioid receptor expressed in CHO-K1 cells assessed as inhibition of forskolin-stimulated cAMP accumulation at <1 uM by HitHunter assay based luminescence analysis; assay type: functional, cell-based
# Mu-type opioid receptor [2] = molecular target: T1, Mu-type opioid receptor (Homo sapiens, UniProt P35372); test: Agonist activity at human mu opioid receptor expressed in CHO-K1 cells assessed as inhibition of forskolin-stimulated cAMP accumulation at 10 uM by HitHunter assay based luminescence analysis; assay type: functional, cell-based
# [3] = molecular target: T2, Kappa-type opioid receptor (Homo sapiens, UniProt P41145); test: Agonist activity at human kappa opioid receptor expressed in CHO-K1 cells assessed as inhibition of forskolin-stimulated cAMP accumulation by HitHunter assay based luminescence analysis relative to control; assay type: functional, cell-based; conditions: filed as agonist
# [4] = molecular target: T2, Kappa-type opioid receptor; test: Agonist activity at kappa opioid receptor (unknown origin) assessed as beta arrestin2 recruitment at 3 uM by PRESTO-Tango assay; assay type: functional; conditions: filed as agonist
# Mu-type opioid receptor [5] = molecular target: T1, Mu-type opioid receptor; test: Agonist activity at human mu opioid receptor expressed in CHO-K1 cells assessed as inhibition of forskolin-stimulated cAMP accumulation by HitHunter assay based luminescence analysis relative to control; assay type: functional, cell-based
Structure (SMILES),Ratio EC50 (Homo sapiens),Activity [1],Activity (Mu-type opioid receptor [2]),also measured
C/C=C1/CN2CC[C@]34C(=C(C(=O)OC)[C@H]1C[C@H]23)Nc1ccc(-c2ccsc2)cc14,110,,,
C/C=C1/CN2CC[C@]34C(=C(C(=O)OC)[C@H]1C[C@H]23)Nc1ccccc14 [AKUAMMICINE],,inactive,inactive,
C/C=C1/CN2CC[C@]34C(=C(C(=O)OC)[C@H]1C[C@H]23)Nc1ccc(I)cc14,7200,inactive,,Emax [3]: 98%; Activity [4]: Active; Emax (Mu-type opioid receptor [5]): < 10%
C/C=C1/CN2CC[C@]34C(=C(C(=O)OC)[C@H]1C[C@H]23)Nc1ccc(-c2ccccc2)cc14,52,,,
C/C=C1/CN2CC[C@]34c5cc(Br)ccc5NC3C(C(=O)OC)[C@H]1C[C@H]24 (stereo partly specified),,,inactive,
C/C=C1/CN2CC[C@]34C(=C(C(=O)OC)[C@H]1C[C@H]23)Nc1ccc(-c2ccoc2)cc14,820,,,
